Values of other authors in publication PMC7503831 (Molecules, 2020).
Marks after values point to notes of the source that are not given here.

Amino acid sequences for entries named in this document (tags omitted).
UniProt P41143, whole entry: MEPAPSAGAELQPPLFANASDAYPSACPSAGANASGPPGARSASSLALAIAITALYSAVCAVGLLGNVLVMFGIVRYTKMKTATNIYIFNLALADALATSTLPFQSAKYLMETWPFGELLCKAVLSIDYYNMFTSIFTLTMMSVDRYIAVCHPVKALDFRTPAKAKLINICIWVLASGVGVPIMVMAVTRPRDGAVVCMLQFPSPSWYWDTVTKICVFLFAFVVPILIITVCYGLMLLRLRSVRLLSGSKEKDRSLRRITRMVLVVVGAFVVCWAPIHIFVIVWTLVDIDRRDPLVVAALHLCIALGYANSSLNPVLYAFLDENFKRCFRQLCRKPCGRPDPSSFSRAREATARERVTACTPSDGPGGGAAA

Target: T1, human DOR (Homo sapiens, UniProt P41143)
T1 construct: expressed in transfected cells; host or cells: CHO cells (membrane preparation)
Settings: standards: DPDPE (1 μM) DOR agonist, ICI-174,864 (10 μM) DOR inverse agonist; cited from earlier work

**Q.** With DPDPE as the substance, how does the “Functional Activity for DOR, Emax (standard)” value read?
**A.** Its value is 100 ^e %.
